Data as given in paper PMC2746281 (2009).

Chains of the proteins cited; added tags and fusions are not shown. Lines headed by an entry give the natural chain unless they say otherwise; changes in a name come on top. Residues count along the entry.
UniProt P16234, 24-1089: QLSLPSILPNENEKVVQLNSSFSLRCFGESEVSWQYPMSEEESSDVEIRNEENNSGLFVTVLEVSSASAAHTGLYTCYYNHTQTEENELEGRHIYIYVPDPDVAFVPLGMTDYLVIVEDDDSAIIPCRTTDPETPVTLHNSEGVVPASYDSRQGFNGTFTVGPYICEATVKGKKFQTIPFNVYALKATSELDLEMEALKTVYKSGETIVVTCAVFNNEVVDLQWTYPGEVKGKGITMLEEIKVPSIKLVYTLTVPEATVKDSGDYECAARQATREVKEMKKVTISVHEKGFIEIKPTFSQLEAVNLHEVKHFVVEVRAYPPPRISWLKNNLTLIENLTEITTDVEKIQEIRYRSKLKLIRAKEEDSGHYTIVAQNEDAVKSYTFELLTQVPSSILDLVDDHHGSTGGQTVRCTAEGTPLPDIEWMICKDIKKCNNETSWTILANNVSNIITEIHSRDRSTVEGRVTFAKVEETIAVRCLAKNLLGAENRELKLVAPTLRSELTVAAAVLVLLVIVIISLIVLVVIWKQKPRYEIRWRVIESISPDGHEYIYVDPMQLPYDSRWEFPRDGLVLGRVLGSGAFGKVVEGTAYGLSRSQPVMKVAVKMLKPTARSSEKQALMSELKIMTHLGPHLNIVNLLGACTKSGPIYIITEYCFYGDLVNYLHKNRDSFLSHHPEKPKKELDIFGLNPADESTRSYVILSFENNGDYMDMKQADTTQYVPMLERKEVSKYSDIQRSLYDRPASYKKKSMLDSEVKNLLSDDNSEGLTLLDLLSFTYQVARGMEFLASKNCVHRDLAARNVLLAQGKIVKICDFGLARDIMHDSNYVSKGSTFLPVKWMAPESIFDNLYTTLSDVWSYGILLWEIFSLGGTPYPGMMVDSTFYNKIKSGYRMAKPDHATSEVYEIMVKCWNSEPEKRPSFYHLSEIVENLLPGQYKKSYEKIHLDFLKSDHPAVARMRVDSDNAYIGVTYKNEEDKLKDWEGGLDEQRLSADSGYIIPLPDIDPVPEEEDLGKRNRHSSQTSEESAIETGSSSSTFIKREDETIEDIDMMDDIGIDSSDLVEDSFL
UniProt P00519, 229-512 limits assumed: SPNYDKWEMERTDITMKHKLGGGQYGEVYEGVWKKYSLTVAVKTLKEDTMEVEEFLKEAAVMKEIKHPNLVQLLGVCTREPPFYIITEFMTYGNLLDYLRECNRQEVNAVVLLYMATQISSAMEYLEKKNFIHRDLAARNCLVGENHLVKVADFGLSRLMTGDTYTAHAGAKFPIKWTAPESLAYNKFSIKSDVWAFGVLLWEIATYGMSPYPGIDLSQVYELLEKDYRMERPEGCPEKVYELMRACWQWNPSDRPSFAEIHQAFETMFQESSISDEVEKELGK
UniProt P00519, whole entry: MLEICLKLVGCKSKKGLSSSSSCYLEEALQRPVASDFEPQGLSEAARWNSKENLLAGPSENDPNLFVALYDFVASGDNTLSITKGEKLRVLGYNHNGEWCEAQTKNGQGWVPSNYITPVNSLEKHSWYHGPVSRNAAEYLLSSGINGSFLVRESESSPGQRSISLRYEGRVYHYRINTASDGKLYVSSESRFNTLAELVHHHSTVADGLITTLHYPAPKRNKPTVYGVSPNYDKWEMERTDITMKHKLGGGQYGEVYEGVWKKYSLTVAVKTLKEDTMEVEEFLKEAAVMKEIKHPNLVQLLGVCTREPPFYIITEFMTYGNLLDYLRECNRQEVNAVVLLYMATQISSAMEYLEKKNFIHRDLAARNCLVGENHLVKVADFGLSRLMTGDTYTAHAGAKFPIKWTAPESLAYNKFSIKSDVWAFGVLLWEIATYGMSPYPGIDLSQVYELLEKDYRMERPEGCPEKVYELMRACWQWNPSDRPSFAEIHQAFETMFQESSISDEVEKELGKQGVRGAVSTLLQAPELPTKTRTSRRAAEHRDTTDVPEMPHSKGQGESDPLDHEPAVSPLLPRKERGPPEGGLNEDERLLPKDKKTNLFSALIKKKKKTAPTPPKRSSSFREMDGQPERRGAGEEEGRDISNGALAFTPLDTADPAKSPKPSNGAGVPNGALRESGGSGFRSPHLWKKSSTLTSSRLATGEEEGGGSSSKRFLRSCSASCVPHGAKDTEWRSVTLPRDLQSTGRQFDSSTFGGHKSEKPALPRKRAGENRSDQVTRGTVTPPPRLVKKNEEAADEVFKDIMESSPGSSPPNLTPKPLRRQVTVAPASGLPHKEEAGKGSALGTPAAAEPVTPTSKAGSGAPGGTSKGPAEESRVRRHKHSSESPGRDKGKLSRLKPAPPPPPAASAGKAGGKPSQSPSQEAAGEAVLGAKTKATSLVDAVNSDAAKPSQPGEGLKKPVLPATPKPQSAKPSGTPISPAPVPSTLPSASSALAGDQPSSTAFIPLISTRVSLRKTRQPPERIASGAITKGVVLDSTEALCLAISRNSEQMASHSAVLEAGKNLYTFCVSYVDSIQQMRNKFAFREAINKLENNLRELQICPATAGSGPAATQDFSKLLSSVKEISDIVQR
UniProt P11274: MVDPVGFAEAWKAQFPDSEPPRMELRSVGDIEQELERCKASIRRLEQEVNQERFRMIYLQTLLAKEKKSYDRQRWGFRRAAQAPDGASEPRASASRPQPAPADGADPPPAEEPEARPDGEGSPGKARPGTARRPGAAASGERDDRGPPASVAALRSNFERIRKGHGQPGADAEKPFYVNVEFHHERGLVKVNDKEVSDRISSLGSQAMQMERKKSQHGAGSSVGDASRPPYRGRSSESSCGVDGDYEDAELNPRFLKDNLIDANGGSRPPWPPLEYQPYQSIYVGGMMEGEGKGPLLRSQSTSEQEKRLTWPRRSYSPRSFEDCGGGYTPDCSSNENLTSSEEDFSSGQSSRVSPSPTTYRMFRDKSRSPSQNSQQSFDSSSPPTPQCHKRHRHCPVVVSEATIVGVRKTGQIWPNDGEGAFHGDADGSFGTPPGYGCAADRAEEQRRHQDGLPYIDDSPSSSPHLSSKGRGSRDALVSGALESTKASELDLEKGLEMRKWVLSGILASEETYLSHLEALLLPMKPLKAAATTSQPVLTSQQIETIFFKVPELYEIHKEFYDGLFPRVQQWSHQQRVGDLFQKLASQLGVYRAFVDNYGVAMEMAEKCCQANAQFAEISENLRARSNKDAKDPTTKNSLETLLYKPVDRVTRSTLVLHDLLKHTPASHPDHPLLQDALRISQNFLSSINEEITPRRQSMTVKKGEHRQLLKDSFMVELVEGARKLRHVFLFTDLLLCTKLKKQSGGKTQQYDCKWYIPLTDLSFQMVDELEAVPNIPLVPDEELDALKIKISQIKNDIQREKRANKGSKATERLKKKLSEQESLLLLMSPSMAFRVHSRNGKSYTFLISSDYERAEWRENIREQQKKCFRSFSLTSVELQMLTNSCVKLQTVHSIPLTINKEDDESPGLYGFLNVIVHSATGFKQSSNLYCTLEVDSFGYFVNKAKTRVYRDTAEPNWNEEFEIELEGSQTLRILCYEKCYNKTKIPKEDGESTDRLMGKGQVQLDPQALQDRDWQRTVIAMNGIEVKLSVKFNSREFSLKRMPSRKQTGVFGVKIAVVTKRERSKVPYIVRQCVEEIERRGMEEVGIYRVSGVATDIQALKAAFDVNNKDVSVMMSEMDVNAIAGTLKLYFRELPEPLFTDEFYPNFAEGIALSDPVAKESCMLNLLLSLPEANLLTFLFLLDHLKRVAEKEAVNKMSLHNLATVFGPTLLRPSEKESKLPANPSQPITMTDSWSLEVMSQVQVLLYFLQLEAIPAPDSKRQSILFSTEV

Columns and labels:
[1] = target: PDGFRα (Homo sapiens, UniProt P16234); assay: Ba/F3 cell proliferation (WST-1), PDGFRα, PDGF-BB-stimulated; type: cell-based
[2] = target: BCR-ABL (Homo sapiens, UniProt P00519+P11274); assay: Ba/F3 cell proliferation (WST-1), BCR-ABL (ABL1 in Table 1); details: read-out: Cell-based assay IC50, ABL1, Ba/F3 cells expressing BCR-ABL
[3] = target: ABL1 (Homo sapiens, UniProt P00519); assay: biochemical

Question: Which IC50 [1] does the source give for `CS(=O)(=O)O.CS(=O)(=O)O.Cc1ccc(NC(=O)c2ccc(CN3CCN(C)CC3)cc2)cc1Nc1nc(-c2cccnc2)cs1` [masitinib, 4-(4-methylpiperazin-1-ylmethyl)-N-[4-methyl-3-(4-pyridin-3ylthiazol-2-ylamino)phenyl]benzamide-mesylate methane sulfonic acid salt] here?
Answer: The IC50 was 0.3 ± 0.005 µM.

Question: And the IC50 [2]?
Answer: The IC50 was 2.8 ± 0.8 µM.

Question: And the IC50 [3]?
Answer: Its IC50 is 1.2 ± 0.34 µM.
